Read-outs that look alike come from different tables or passages of the source.
How the values were obtained:
mice = assay: Jumping test in mice (naloxone-induced withdrawal jumping); assay type: in vivo; details: test substance i.p. seven times over two days, 30 mg/kg naloxone i.p.
conscious Beagle dogs = assay: ECG, conscious dog; details: 10 μg/kg i.v.
ORL1 receptor = ORL1 receptor (Homo sapiens, UniProt P41146); assay: ORL1 receptor binding assay with 3H-nociceptin/orphanin FQ, membranes of recombinant CHO-ORL1 cells
human μ-opiate receptor = human μ-opiate receptor (Homo sapiens, UniProt P35372); assay: μ-opiate receptor binding, [3H]-naloxone displacement, CHO-K1 membrane preparation
[1] = read-out: ORL1 human Ki, No. 1-49

Protein sequences, listed by entry. Tags and fused reporters are not part of them. Lines headed by an entry give the natural chain unless they say otherwise; changes in a name come on top.
UniProt P41146: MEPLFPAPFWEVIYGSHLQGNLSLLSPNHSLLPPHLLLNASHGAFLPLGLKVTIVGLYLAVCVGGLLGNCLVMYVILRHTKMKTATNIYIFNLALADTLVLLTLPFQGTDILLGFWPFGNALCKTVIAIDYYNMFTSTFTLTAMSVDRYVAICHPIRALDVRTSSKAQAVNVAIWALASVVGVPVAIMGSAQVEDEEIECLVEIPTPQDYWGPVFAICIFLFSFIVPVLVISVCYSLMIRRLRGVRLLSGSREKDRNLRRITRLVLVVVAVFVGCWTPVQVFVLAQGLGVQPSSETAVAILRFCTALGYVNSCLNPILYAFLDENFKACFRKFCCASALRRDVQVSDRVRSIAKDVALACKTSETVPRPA
UniProt P35372, whole entry, looked up: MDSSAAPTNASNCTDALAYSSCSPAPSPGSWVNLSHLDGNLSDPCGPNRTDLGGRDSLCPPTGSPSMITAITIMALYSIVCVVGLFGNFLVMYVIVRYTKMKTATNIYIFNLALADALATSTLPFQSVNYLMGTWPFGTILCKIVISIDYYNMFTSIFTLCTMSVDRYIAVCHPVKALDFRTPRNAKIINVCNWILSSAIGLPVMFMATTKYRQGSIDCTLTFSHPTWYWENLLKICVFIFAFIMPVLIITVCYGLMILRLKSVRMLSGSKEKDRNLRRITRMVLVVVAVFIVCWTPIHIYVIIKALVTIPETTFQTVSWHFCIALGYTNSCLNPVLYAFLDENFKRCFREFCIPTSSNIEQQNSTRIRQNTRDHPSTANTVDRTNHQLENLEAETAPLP

SMILES	ORL1/μ ratio (ORL1 receptor; No. 50-145)	Ki (ORL1 receptor; read-out: ORL1, Ki, No. 50-145) [nM]	Ki (human μ-opiate receptor; read-out: μ, Ki, No. 50-145) [nM]	other results
CN(C)C1(c2cccs2)CCC2(CC1)OCCc1c2[nH]c2ccccc12 (stereo not drawn)	–	–	–	withdrawal jumping triggered by naloxone (mice): no, or only a minimal, withdrawal behaviour
CN(C)C1(c2ccccc2)CCC2(CC1)OCCc1c2[nH]c2ccccc12 (stereo not drawn)	–	–	–	Heart rate observation (conscious Beagle dogs): Significant Bradycardia; PR interval (conscious Beagle dogs): No effect on the PRinterval; QTc [van der Water] (conscious Beagle dogs): Non-significant extension; heart rate change (conscious Beagle dogs): (heart rate: −40%); increase in the QRS time (conscious Beagle dogs; slight, significant): Slight (<10%) significant; withdrawal jumping triggered by naloxone (mice): no, or only a minimal, withdrawal behaviour
CN(C)C1(c2cccc(F)c2)CCC2(CC1)c1[nH]c3ccccc3c1CCN2C(=O)c1ccc([N+](=O)[O-])cc1 (stereo not drawn)	0.97	6.4	6.2	–
Cc1cccc(C(=O)N2CCc3c([nH]c4ccccc34)C23CCC(Cc2ccccc2)(N(C)C)CC3)c1 (stereo not drawn)	0.75	16	12	–
CN(C)C1(Cc2ccccc2)CCC2(CC1)c1[nH]c3ccccc3c1CCN2C(=O)c1ccco1 (stereo not drawn)	0.63	5.4	3.4	–
CN(C)C1(c2ccccc2)CCC2(CC1)c1[nH]c3ccccc3c1CCN2C(=O)Cc1cccs1 (stereo not drawn)	0.48	6.9	3.3	–
CN(C)C1(c2cccc(F)c2)CCC2(CC1)c1[nH]c3ccccc3c1CCN2C(=O)c1ccc(C(C)(C)C)cc1 (stereo not drawn)	1.06	9	9.5	–
CC1Cc2c([nH]c3ccc(Cl)cc23)C2(CCC(c3ccccc3)(N(C)C)CC2)O1 (stereo not drawn)	–	–	–	ORL1/μ Ratio calculated as Ki(μ)/Ki(ORL1) (ORL1 receptor; No. 1-49): 1.77; Ki (ORL1 receptor; [1]): 60 nM; Ki (human μ-opiate receptor; read-out: μ Ki, No. 1-49): 110 nM
CN(C)C1(Cc2ccccc2)CCC2(CC1)c1[nH]c3ccccc3c1CCN2C(=O)Cc1ccccc1 (stereo not drawn)	0.54	9.9	5.3	–
CN(C)C1(c2cccc(F)c2)CCC2(CC1)c1[nH]c3ccccc3c1CCN2C(=O)c1ccccc1 (stereo not drawn)	2.50	3.4	8.5	–
CCC(=O)N1CCc2c([nH]c3ccccc23)C12CCC(c1cccc(F)c1)(N(C)C)CC2 (stereo not drawn)	1.07	57	61	–
CN(C)C1(Cc2ccccc2)CCC2(CC1)c1[nH]c3ccccc3c1CCN2C(=O)c1cc(F)ccc1F (stereo not drawn)	–	–	–	ORL-1 [1 μM], % inhibition (ORL1 receptor; 1 μM): 41%; μ-opiate-receptor [1 μM], % inhibition (human μ-opiate receptor; 1 μM): 82%
CN(C)C1(c2cccc(F)c2)CCC2(CC1)c1[nH]c3ccccc3c1CCN2C(=O)C1CCCCC1 (stereo not drawn)	2.60	25	65	–
CC(=O)N1CCc2c([nH]c3ccccc23)C12CCC(c1ccccc1)(N(C)C)CC2 (stereo not drawn)	–	–	–	ORL1/μ Ratio calculated as Ki(μ)/Ki(ORL1) (ORL1 receptor; No. 1-49): 1.98; Ki (ORL1 receptor; [1]): 2.9 nM; Ki (human μ-opiate receptor; read-out: μ Ki, No. 1-49): 6 nM
CN(C)C1(c2ccc(F)cc2)CCC2(CC1)OCCc1c2[nH]c2ccccc12 (stereo not drawn)	–	–	–	ORL1/μ Ratio calculated as Ki(μ)/Ki(ORL1) (ORL1 receptor; No. 1-49): 3.00; Ki (ORL1 receptor; [1]): 3.2 nM; Ki (human μ-opiate receptor; read-out: μ Ki, No. 1-49): 10 nM
CN(C)C1(c2ccccc2)CCC2(CC1)c1[nH]c3ccccc3c1CCN2C(=O)c1cc(C(F)(F)F)ccc1F (stereo not drawn)	0.39	49	19	–
CN(C)C1(c2cccc(F)c2)CCC2(CC1)c1[nH]c3ccccc3c1CCN2C(=O)c1ccc(F)c(C(F)(F)F)c1 (stereo not drawn)	1.28	7.1	9.1	–
CN(C)C1(Cc2ccccc2)CCC2(CC1)c1[nH]c3ccccc3c1CCN2C(=O)Cc1cccs1 (stereo not drawn)	0.79	14	11	–
CN(C)C1(c2ccccc2)CCC2(CC1)c1[nH]c3ccccc3c1CCN2C(=O)CCC1CCCC1 (stereo not drawn)	1.29	9.3	12	–
CN(C)C1(c2cccc(F)c2)CCC2(CC1)c1[nH]c3ccccc3c1CCN2C(=O)c1ccc(C(F)(F)F)cc1F (stereo not drawn)	0.80	4.4	3.5	–
CN(C)C1(c2ccccc2)CCC2(CC1)c1[nH]c3ccccc3c1CCN2C(=O)c1cc(F)cc(F)c1 (stereo not drawn)	0.95	2	1.9	–

Source: patent US8034936B2, “Spirocyclic cyclohexane compounds useful to treat substance dependency” (Gruenenthal GmbH, priority 2005, dated 2011)
